# Test system: BALB/c mice
# [1] = MPS daily for different time periods, vs vehicle
structure (smiles),measurement,setting,value
"C[C@H]1C[C@@H]2[C@H]([C@@H](O)C[C@@]3(C)[C@H]2CC[C@]3(O)C(=O)CO)[C@@]2(C)C=CC(=O)C=C12 [MPS, methylprednisolone]",numbers of SA-βGal+ cells per mm^2 tissue area in primary spongiosa,"MPS daily for 2 weeks, four-week-old mice, vs control",Increased
same,"senescent blood vessel endothelial cells (SA-βGal expression in CD144+ cell population, flow cytometry)","MPS daily for 2 weeks, femoral metaphysis, vs control mice",significantly more
same,SA-βGal staining in Emcn+ blood vessel endothelial cells in femoral metaphysis sections,"MPS daily for 2 weeks, vs control",increased
same,p16 staining in Emcn+ blood vessel endothelial cells,"MPS daily for 2 weeks, vs controls",significant increase
same,Emcn+ CD31+ H-type vessels: percentage of CD31+Emcn+ cells isolated from femoral metaphysis (flow cytometry),[1],decreased
same,blood vessels: Emcn+ CD31+ cells in femoral primary spongiosa (immunofluorescence),[1],decreased after MPS treatment in a time-dependent manner
